Data reported in the METLIN SMRT retention time set (Domingo-Almenara et al. 2019).

Assay: gradient 5% acetonitrile 3 min, to 50% in 2 min, to 85% in 15 min, held 3 min, 100 µL/min
Conditions: column: Zorbax Extend-C18 2.1 x 50 mm; eluents: water / acetonitrile, 0.1% formic acid
Method in brief: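 Retention times of pure standards were taken from adduct peaks that were selected by computer and manually inspected. Over 3 months, mixtures of ~100 molecules were run by HPLC–quadrupole time-of-flight mass spectrometry in positive and negative ionization mode. The Zorbax Extend-C18 column (2.1 × 50 mm, 1.8 μm) ran at 100 μL/min in water and acetonitrile, each containing 0.1% formic acid, with 40 μL dead volume and 900 μL dwell volume.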

Q: With `NC(=NCCc1ccc(I)cc1)SCCCc1cnc[nH]1` as the compound, how does the RP-LC retention time read?
A: Its RP-LC retention time is 640 s.
